This note sets out measurements from patent US20050175580A1, “Compositions and methods for enhancing cytokine activity and treating hypotension associated with the administration of cytokines” (priority 2001, published 2005).

For data set [1], the system named is RD-995 tumor. The data set can be described thus: Rosenberg tumor model, RD-995 pulmonary metastases. The format is in vivo, mice. The conditions noted are these: single agent; IL-2 180,000 IU i.p. every 12 h for 5 days or M40403 3 mg/kg; day 14. The text has this: RD-995 is a skin fibrosarcoma that was induced by chronic ultraviolet light exposure of a C3H/HeN mouse (Samlowski et al., 1995). This tumor grows in non-immunosuppressed mice, and is thus termed a “progressor” tumor. RD-995 is sensitive to LAK cell mediated killing in vitro. Pulmonary metastases derived from RD-995 are exquisitely sensitive to IL-2 treatment (with or without infusion of LAK cells).
Four groups (n=6 mice per group) of mice (control, M40403 alone, IL-2 only, IL-2+M40403) were acclimated to metabolic cages. Once stabilized, mice were injected with 10^6 RD-995 tumor cells intravenously. An IL-2 only treatment group served as a positive control, with IL-2 treatment beginning 3 days after tumor injection (IL-2 given at 180,000 IU i.p. every 12 h for 5 days). Simultaneously, parallel groups of mice began M40403 (3 mg/kg), concurrently with IL-2. On day 14, mice were sacrificed by anesthetic overdose. After anterior thoracotomy, India ink solution (30 ml India ink, 4 drops ammonium hydroxide in 170 ml distilled water) was instilled into the trachea of each mouse via 18 ga. needle, until the lungs were completely expanded. Lungs were then excised and bleached in 5-10 ml Fekete's solution (100 ml 70% ethanol, 10 ml formaldehyde, 5 ml glacial acetic acid) for at least 24 h prior to enumeration of metastases using a magnifying lens.

The subject of data set [2] is Meth A tumor. Kind of data set: Meth A fibrosarcoma tumor model (malignant ascites), survival. Format: in vivo, BALB/c mice. Conditions: IL-2 180,000 IU s.c. every 12 h for 5 days from day 6. The text has this: Meth A was induced in a BALB/c mouse by methylcholanthrene treatment (obtained from Lloyd Old, MSKCC). This very aggressive fibrosarcoma is one of the rare tumors resistant to LAK cell mediated cytolysis in vitro. When injected intraperitoneally into mice (malignant ascites), this tumor responds to IL-2 therapy with improved survival. The mechanism is not completely established but may involve nitric oxide as a component of the treatment response. See Yim et al., J. Immunol. 155: 4382-4390 (1995). […] The Meth A model serves to provide a resistant tumor model to evaluate potentially synergistic antitumor effects of combinations of IL-2 with M40403. This model is more representative of the majority of IL-2 treated human cancers, which at best undergo disease stabilization following IL-2 treatment followed by eventual disease progression.
Groups of 8 normal BALB/c mice (Control, M40403 only, IL-2 only, IL-2+M40403) were injected with 2×10^6 Meth A tumor cells intraperitoneally (day 0). On day 6 following tumor implantation, mice began treatment with IL-2 (180,000 IU s.c. every 12 h for 5 days) with or without concomitant treatment with M40403 (3 mg/kg, s.c.). Survival of the mice was used as the major endpoint to assess therapeutic responses.

In data set [3] the test system is mice. Kind of data set: IL-2 dose escalation study with or without M40403 (deaths, blood pressure). Format: in vivo. Conditions: absence of M40403. How it is done:
Mice (n=6 per group) were treated with escalating doses of IL-2 of 180,000, 200,000, 250,000, 300,000, 350,000 and 400,000 IU IL-2 injected i.p. twice daily for 5 days (10 doses). Experimental animals received M40403 (3 mg/kg) i.p. b.i.d. in conjunction with IL-2. Two hours after the last dose of IL-2, systolic blood pressure was measured via tail cuff (Stoelting, Wood Dell, Ill.) and using a PowerLab digital signal transducer (AD instruments, Mountain View, Calif.). Analysis was performed using Chart 3.6.1 software (AD instruments).

In data set [4] the test system is mice. The data set can be described thus: IL-2 induced hypotension in mice, systolic blood pressure via tail cuff. The format is in vivo. The conditions noted are these: IL-2 180,000 IU i.p. twice daily for 5 days. The procedure:
IL-2, M40403 and IL-2/M40403 were administered to mice (n=6 per group) in order to determine the effect of these compounds on mean blood pressure. 180,000 IU of IL-2 was administered intraperitoneally (i.p.) twice daily for 5 days (10 doses) to each animal of the first group on a daily basis for 4 days. Experimental animals received M40403 (0.03-3 mg/kg) i.p.b.i.d. in conjunction with IL-2. Parallel groups of untreated mice or mice receiving M40403 alone (at the highest dose tested of 3 mg/kg) served as a control. Two hours after the last dose of IL-2, systolic blood pressure was measured via tail cuff (Stoelting, Wood Dell, Ill.) and using a PowerLab digital signal transducer (AD instruments, Mountain View, Calif.). Analysis was performed using Chart 3.6.1 software (AD instruments).
Preliminary experiments were also performed with M40401.

“IL-2: Interleukin-2 (IL-2), a cytokine which is primarily synthesized by activated T lymphocytes”: the “number of tumor nodules in lungs” value in data set [1] is “eliminated”. In data set [2], the survival is 19 days. Also, the deaths was 1 deaths of 6 mice in data set [3] (IL-2 200,000 IU b.i.d. for 5 days), 1 deaths of 6 mice in data set [3] (IL-2 250,000 IU b.i.d. for 5 days), 1 deaths of 6 mice in data set [3] (IL-2 300,000 IU b.i.d. for 5 days) and 6 deaths of 6 mice in data set [3] (IL-2 400,000 IU b.i.d. for 5 days). The “reduction of systolic BP following IL-2 administration” value in data set [4] (versus control) is recorded as “approximately 50%”. In data set [4] (mice, n=6 per group, M40403 alone at 3 mg/kg, tail cuff two hours after last dose of IL-2), the “Mean Systolic BP” value is recorded as 44.53. Moreover, in data set [4] (mice, n=6 per group, M40403 alone at 3 mg/kg, two hours after last dose of IL-2), the “systolic BP, mean” value is given as 45±8.0 mmHg.
